{"sequences": {"note": "By UniProt entry, the sequences of proteins in these tests, tags left out.", "UniProt P34972, whole entry": "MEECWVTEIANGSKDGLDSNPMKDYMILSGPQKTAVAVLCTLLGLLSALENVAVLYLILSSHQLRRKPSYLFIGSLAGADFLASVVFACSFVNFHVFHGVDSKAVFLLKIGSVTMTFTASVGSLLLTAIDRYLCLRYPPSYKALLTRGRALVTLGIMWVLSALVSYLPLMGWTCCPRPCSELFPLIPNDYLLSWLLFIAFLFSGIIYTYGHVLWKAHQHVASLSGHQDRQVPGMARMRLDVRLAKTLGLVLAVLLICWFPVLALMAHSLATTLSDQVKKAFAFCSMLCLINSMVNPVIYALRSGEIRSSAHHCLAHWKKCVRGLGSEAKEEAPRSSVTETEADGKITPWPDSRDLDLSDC"}, "source": "paper PMC11117691", "about": "“Flipping the GPCR Switch: Structure-Based Development of Selective Cannabinoid Receptor 2 Inverse Agonists” (ACS Central Science, 2024)", "target": "hCB2R (Homo sapiens, UniProt P34972)", "experiment": "cell-based", "design": "expressed in transfected cells; host or cells: HEK293TR cells, tetracycline-induced, live cells"}
{"smiles": "CCCCCCC(C)(C)c1cc(OC)c([C@@H]2C=C(CO)[C@@H]3C[C@H]2C3(C)C)c(OC)c1", "note": "[HU-308, reference compound]", "values": [{"measurement": "EC50", "value": 4.27, "unit": "nM"}]}
